Assay results reported in patent US8034928B2, “Fluorescence assays with improved sensitivity” (Wisconsin Alumni Research Foundation, priority 2003, dated 2011).

Tested on: HeLa cell extract

N,N-diacetylated rhodamine 110
stability of amide groups: stable
